The record followed here is US20210380535A1, “CO-CRYSTALS COMPRISING EPICATECHIN AND A CARBOXY-N-HETEROCYCLIC CO-CRYSTAL FORMER” (Epirium Bio Inc., priority 2018, published 2021).

Series [1] can be described thus: Pharmacokinetics study of (+)/(−) epicatechin and their trigonelline (1:1) co-crystals, oral (Example 3). The class given is in vivo. Conditions: male SD rats, 10 mpk equivalent of parent drug, vehicle CMC and Tween 80, plasma. The method, then: (§1) Co-crystals of the present invention were administered orally (PO) at a dose of 10 mpk equivalent of parent drugs in male SD rats. The PK results of the compound were compared with exposure of parent drugs. […] Blood samples were centrifuged at 10,000 rpm for 5 min. at 4° C. to obtain the plasma, which were aspirated into separate labelled tubes and stored at −80° C. Extraction solvent was added to plasma, was vortexed and shaken on shaker for 10 minutes, centrifuged at 10,000 rpm for 10 minutes at 4° C. Supernatant was kept for analysis.

A short description of series [2]: Pharmacokinetics study of (+) epicatechin (SPR590) and its trigonelline (1:1) co-crystal (SPR515), oral (Example 4). The format is in vivo. As to conditions: male SD rats, CMC and Tween 80; for Plasma level: PO 10 mpk (SPR515: equivalent to 6.25 mpk epicatechin). The method, then:
as §1, with “mpk” for “mpk equivalent of parent drugs”, “rats for the control (+) epicatechin group and 10 mpk of SPR 515 which is equivalent to 6.25 mpk of epicatechin.” for “rats.”

[3] abbreviates: PO, dose 10 mpk (MW adjusted (+)-epicatechin dose: SPR590 10 mpk, SPR515 6.25 mpk).

By AUC is commonly meant the area under the concentration-time curve, a measure of exposure. By Cmax is commonly meant the peak of the concentration-time curve. As usually defined, the Tmax is the time at which the peak concentration occurs.

Regarding “(+) Epicatechin_Trigonelline (1:1) Co-Crystals [Compound 104]”, the AUC in series [1] is 0.7456 µM·h; in series [2] (setting [3]) it was 1.8212 µM·h. The Cmax came to 455 nM in series [1] and 801 nM in series [2] (setting [3]). Also, the Tmax in series [1] worked out at 48 min. Further, in series [1], the T½ elimination came out at 40.8 min. For the same substance, the Plasma level in series [2] (time point 0.16 h) was 432.4 nM; in series [2] (time point 0.5 h) it was 620.5 nM; in series [2] (time point 1 h), 764.0 nM; in series [2] (time point 2 h), 418.9 nM; in series [2] (time point 4 h) it was 95.3 nM; in series [2] (time point 8 h), 0.0 nM.

As to “(−) Epicatechin_Trigonelline (1:1) Co-Crystals [Compound 101]”, in series [1], the AUC was found to be 0.7566 µM·h, the peak concentration (Cmax) was 435 nM, the Tmax was 66 min and the T½ elimination was 27 min.
